{"source": "ChEMBL document CHEMBL3576868", "about": "(J Med Chem, 2015)", "key": {"[1]": {"target": "T1, Beta-N-acetyl-D-hexosaminidase-A/B (Homo sapiens, UniProt P07686+P06865)", "T1 sequence (P07686 whole entry)": "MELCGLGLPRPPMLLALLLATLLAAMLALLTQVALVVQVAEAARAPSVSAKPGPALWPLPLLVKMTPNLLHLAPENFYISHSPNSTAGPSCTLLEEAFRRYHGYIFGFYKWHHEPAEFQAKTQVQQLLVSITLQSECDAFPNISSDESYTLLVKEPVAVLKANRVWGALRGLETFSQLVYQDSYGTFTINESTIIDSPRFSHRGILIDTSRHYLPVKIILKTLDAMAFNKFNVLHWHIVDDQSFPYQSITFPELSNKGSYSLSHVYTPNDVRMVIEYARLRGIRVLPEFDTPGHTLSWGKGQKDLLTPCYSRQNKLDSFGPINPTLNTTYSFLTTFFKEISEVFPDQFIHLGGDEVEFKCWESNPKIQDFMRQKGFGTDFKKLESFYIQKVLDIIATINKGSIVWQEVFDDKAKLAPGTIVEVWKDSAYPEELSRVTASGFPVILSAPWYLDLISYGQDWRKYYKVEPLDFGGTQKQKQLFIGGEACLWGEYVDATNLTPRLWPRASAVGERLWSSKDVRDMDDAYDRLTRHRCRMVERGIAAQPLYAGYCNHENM", "T1 sequence (P06865 whole entry)": "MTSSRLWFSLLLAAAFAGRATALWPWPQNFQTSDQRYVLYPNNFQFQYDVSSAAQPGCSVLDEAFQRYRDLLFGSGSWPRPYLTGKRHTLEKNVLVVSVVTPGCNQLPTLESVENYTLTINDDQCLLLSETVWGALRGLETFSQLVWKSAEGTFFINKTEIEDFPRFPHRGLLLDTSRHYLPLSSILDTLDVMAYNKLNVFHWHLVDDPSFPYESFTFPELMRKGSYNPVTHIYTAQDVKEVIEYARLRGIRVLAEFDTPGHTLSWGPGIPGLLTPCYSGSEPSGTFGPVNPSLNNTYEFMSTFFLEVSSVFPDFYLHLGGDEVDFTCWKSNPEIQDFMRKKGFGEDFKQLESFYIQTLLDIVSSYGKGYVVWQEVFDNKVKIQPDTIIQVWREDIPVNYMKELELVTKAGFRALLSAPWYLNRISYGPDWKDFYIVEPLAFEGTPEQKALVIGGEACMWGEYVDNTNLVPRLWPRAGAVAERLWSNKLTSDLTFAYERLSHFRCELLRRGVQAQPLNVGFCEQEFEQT", "assay": "Inhibition of beta-N-acetylhexosaminidase (unknown origin)", "assay_type": "protein assay"}, "[2]": {"target": "T1, Beta-N-acetyl-D-hexosaminidase-A/B", "assay": "Inhibition of human placental HexA using pNPGlcNAc substrate", "method_in_brief": "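Purified Hex A from human placenta (10 ng/mL) incubated at 37 °C with diluted compound and pNPGlcNAc (1.6 mM) in McIlvaine citrate phosphate buffer pH 4.5 with 0.025% human serum albumin. Reaction stopped with 0.1 M MAP pH 10.5 and absorbance read at 405 nm. IC50 obtained by non-linear fitting of the dose−response curve.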"}}}
{"smiles": "CCc1nc(N)nc(N)c1-c1ccc(Cl)cc1", "note": "[PYRIMETHAMINE]", "values": [{"measurement": "IC50", "setting": "[1]", "value": 15, "unit": "µM"}, {"measurement": "IC50", "setting": "[2]", "value": 17, "unit": "µM"}]}
